As a reminder, the IC50 is the midpoint of a concentration-inhibition curve. Read a low IC50 as greater potency in that assay.

By UniProt entry, the sequences of proteins in these tests, tags left out. Where a name states a change or a piece, a line headed by the entry shows the natural chain unless it says otherwise.
UniProt P56817: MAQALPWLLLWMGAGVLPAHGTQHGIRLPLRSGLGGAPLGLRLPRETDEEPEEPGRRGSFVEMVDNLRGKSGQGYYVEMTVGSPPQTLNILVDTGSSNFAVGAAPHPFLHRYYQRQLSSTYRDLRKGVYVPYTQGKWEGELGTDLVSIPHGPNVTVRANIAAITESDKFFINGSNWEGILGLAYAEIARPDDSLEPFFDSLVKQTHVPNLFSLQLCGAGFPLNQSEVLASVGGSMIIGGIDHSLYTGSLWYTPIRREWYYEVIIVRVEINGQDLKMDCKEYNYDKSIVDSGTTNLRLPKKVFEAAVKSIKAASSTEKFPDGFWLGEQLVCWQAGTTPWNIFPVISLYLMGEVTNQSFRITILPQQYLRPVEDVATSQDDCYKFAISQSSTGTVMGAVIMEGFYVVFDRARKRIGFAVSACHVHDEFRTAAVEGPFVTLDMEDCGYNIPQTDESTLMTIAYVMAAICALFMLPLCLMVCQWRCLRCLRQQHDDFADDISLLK

Molecules are shown by their SMILES.

Among the data in ChEMBL document CHEMBL1156090, “Design and synthesis of cell potent BACE-1 inhibitors: structure-activity relationship of P1' substituents” (Bioorg Med Chem Lett, 2009) are IC50 values, retold here.

The experiment concerns the target Beta-secretase 1 (Homo sapiens, UniProt P56817).

`CC(=O)N[C@@H](Cc1cc(F)cc(F)c1)[C@H](O)CNC1(c2cccc(C(C)(C)C)c2)CCc2n[nH]cc2C1` (mixture of isomers) displayed an IC50 of 12 nM.
